Experimental data: ChEMBL document CHEMBL3877309, “Determination of binding modes and binding constants for the complexes of 6H-pyrido[4,3-b]carbazole derivatives with DNA” (Bioorg Med Chem, 2017)

Assays:
[1] = Binding affinity to synthetic biotin-labeled 30-mer GC-rich duplex DNA in pH 7.4 EDTA buffer solution in presence of 50 mM NaCl at 25 degC by QCM sensogram analysis
[2] = Binding affinity to synthetic biotin-labeled 30-mer GC-rich duplex DNA in pH 7.4 EDTA buffer solution in presence of 0.05 M NaCl at 25 degC by QCM sensogram analysis
[3] = Ratio of Ka for synthetic biotin-labeled 30-mer GC-rich duplex DNA in presence of 200 mM NaCl to Ka for synthetic biotin-labeled 30-mer GC-rich duplex DNA in presence of 50 mM NaCl
[4] = Binding affinity to synthetic biotin-labeled 30-mer AT-rich duplex DNA in pH 7.4 EDTA buffer solution in presence of 0.05 M NaCl at 25 degC by QCM sensogram analysis
[5] = Binding affinity to synthetic biotin-labeled 30-mer GC-rich duplex DNA in pH 7.4 EDTA buffer solution in presence of 200 mM NaCl at 25 degC by QCM sensogram analysis
[6] = Binding affinity to synthetic biotin-labeled 30-mer GC-rich duplex DNA in pH 7.4 EDTA buffer solution assessed as dissociation rate constant in presence of 0.05 M NaCl at 25 degC by QCM sensogram analysis
[7] = Binding affinity to synthetic biotin-labeled 30-mer GC-rich duplex DNA in pH 7.4 EDTA buffer solution assessed as ratio of association rate constant to dissociation rate constant in presence of 0.05 M NaCl at 25 degC by QCM sensogram analysis
[8] = Binding affinity to synthetic biotin-labeled 30-mer GC-rich duplex DNA in pH 7.4 EDTA buffer solution assessed as association rate constant in presence of 0.05 M NaCl at 25 degC by QCM sensogram analysis
[9] = Binding affinity to synthetic biotin-labeled 30-mer AT-rich duplex DNA in pH 7.4 EDTA buffer solution assessed as dissociation rate constant in presence of 0.05 M NaCl at 25 degC by QCM sensogram analysis
[10] = Binding affinity to synthetic biotin-labeled 30-mer AT-rich duplex DNA in pH 7.4 EDTA buffer solution assessed as association rate constant in presence of 0.05 M NaCl at 25 degC by QCM sensogram analysis
[11] = Binding affinity to synthetic biotin-labeled 30-mer AT-rich duplex DNA in pH 7.4 EDTA buffer solution assessed as ratio of association rate constant to dissociation rate constant in presence of 0.05 M NaCl at 25 degC by QCM sensogram analysis

SMILES | Ka [1] [×10⁵ /M] | Ka [2] [×10⁵ /M] | Ratio [3] | Ka [4] [×10⁵ /M] | Ka [5] [×10⁵ /M] | other results
CNC(=O)NCCNC(=O)c1c2cc[n+](C)cc2c(C)c2c1[nH]c1ccccc12 | 2.87 | 2.87 | 0.4 to 0.5 | 1.87 | 0.899 | –
CNC(=O)NCCNC(=O)c1c2ccncc2c(C)c2c1[nH]c1ccc(OC)cc12 | – | 3.03 | – | 4.75 | – | –
COC(=O)c1c2cc[n+](C)cc2c(C)c2c1[nH]c1ccccc12 | – | 15.6 | – | 10.5 | – | –
Cc1c2c[n+](C)ccc2c(C(=O)NCCNCCN)c2[nH]c3ccccc3c12 | – | 4.85 | – | 2.64 | – | –
CNC(=O)NCCNC(=O)c1c2cc[n+](C)cc2c(C)c2c1[nH]c1ccc(OC)cc12 | 3.62 | 3.62 | 0.4 to 0.5 | 2.04 | 1.46 | –
Cc1c2cnccc2c(C)c2c1c1ccccc1n2C | – | 6.88 | – | – | – | –
Cc1c2ccncc2c(C)c2c1[nH]c1ccccc12 [ELLIPTECINE] | – | 12.3 | – | 4.2 | – | –
COC(=O)c1c2cc[n+](CCNCCN)cc2c(C)c2c1[nH]c1ccccc12 | – | 82 | – | 16 | – | –
Cc1c2c[n+](CCCCCN)ccc2c(C)c2c1c1cc(O)ccc1n2C.[Cl-] | 454 | 454 | 0.4 to 0.5 | 137 | 272 | –
CNC(=O)NCCOCC[n+]1ccc2c(C)c3c(c(C)c2c1)c1cc(O)ccc1n3C | 21.2 | 21.2 | 0.4 to 0.5 | 4.5 | 11.5 | –
CNC(=O)NCCOCC[n+]1ccc2c(C)c3[nH]c4ccc(O)cc4c3c(C)c2c1.[Cl-] | 32.8 | 32.8 | 0.4 to 0.5 | 6.81 | 13 | –
Cc1c2c[n+](C)ccc2c(C(=O)NCCCCCN)c2[nH]c3ccccc3c12 | – | 24.3 | – | 2.86 | – | –
CNC(=O)NCCNC(=O)c1c2ccncc2c(C)c2c1[nH]c1ccccc12 | – | 2.01 | – | 1.67 | – | –
Cc1c2c[n+](C)ccc2c(C(=O)NCCN)c2[nH]c3ccccc3c12 | 21.1 | 21.1 | 0.4 to 0.5 | 3.81 | 7.55 | –
CNC(=O)NCCOCCNC(=O)c1c2cc[n+](C)cc2c(C)c2c1[nH]c1ccccc12 | – | 1.68 | – | 1.89 | – | –
CNC(=O)NCCCNC(=O)c1c2cc[n+](C)cc2c(C)c2c1[nH]c1ccccc12 | – | 1.5 | – | 1.72 | – | –

SMILES | Ka [1] [×10⁵ /M] | Ka [2] [×10⁵ /M] | Ratio [3] | Ka [4] [×10⁵ /M] | Ka [5] [×10⁵ /M] | other results
Cc1c2c[n+](C)ccc2c(C(=O)NCCCN)c2[nH]c3ccccc3c12 | – | 89.2 | – | 3.44 | – | –
Cc1c2cc[n+](CCOCCN)cc2c(C)c2c1[nH]c1ccccc12.[Cl-] | 299 | 299 | 0.4 to 0.5 | 65.1 | 92.8 | –
Cc1c2cc[n+](C)cc2c(C)c2c1[nH]c1ccccc12 | – | 29.9 | – | 8.37 | – | K [6]: 1.51 ×10⁻³ /s; Ratio [7]: 3.4 ×10⁶ /M; K [8]: 0.51 ×10⁴ /M/s
Cc1c2cc[n+](CCN)cc2c(C)c2c1[nH]c1ccccc12 | – | 120 | – | 40.3 | – | –
Cc1c2ccncc2c(C)c2c1[nH]c1ccc(O)cc12 | – | 107 | – | – | – | –
CNC(=O)NCCCCNC(=O)c1c2cc[n+](C)cc2c(C)c2c1[nH]c1ccccc12 | – | 1.83 | – | 2.49 | – | –
Cc1c2cnccc2c(C(=O)NCCN)c2[nH]c3ccccc3c12 | 14.5 | 14.5 | 0.4 to 0.5 | 1.82 | 5.31 | –
CNC(=O)NCCNCCNC(=O)c1c2cc[n+](C)cc2c(C)c2c1[nH]c1ccccc12 | – | 1.66 | – | 2.2 | – | –
Cc1c2cc[n+](CCOCCN)cc2c(C)c2c1[nH]c1ccc(O)cc12.[Cl-] | 387 | 387 | 0.4 to 0.5 | 311 | 155 | –
COC(=O)c1c2cc[n+](CCOCCN)cc2c(C)c2c1[nH]c1ccccc12.[Cl-] | – | 111 | – | 80 | – | –
CNC(=O)NCCCCCNC(=O)c1c2cc[n+](C)cc2c(C)c2c1[nH]c1ccccc12 | – | 2.69 | – | 2.14 | – | –
Cc1c2c[n+](C)ccc2c(C(=O)NCCOCCN)c2[nH]c3ccccc3c12 | – | 53.7 | – | 4.42 | – | –
COC(=O)c1c2cc[n+](CCN)cc2c(C)c2c1[nH]c1ccccc12.[Cl-] | – | 94.2 | – | 39.5 | – | –
Cc1c2c[n+](C)ccc2c(C(=O)NCCCCN)c2[nH]c3ccccc3c12 | – | 39.7 | – | 4.31 | – | –
COc1ccc2[nH]c3c(C(=O)NCCN)c4ccncc4c(C)c3c2c1 | 20.5 | 20.5 | 0.4 to 0.5 | 3.88 | 7.41 | –
COc1ccc2[nH]c3c(C(=O)NCCN)c4cc[n+](C)cc4c(C)c3c2c1 | 124 | 124 | 0.067 | 19.9 | 8.28 | K [6]: 1.64 ×10⁻³ /s; Ratio [7]: 11.2 ×10⁶ /M; K [8]: 1.82 ×10⁴ /M/s; K [9]: 12.5 ×10⁻³ /s; K [10]: 2.14 ×10⁴ /M/s; Ratio [11]: 1.71 ×10⁶ /M
